Literature values, collected in patent US9539445B2, “Type of anion-containing calcium phosphate compound for dental remineralization” (TAIPEI MEDICAL UNIVERSITY, priority 2010, dated 2017).

Settings: in water; materials known in the art for dental remineralization

| solubility | Substance |
| --- | --- |
| 2 g/100 ml water | calcium glycerophosphate |
| 0.3-1 g/100 ml water | calcium lactophosphate |
